From US20060194819A1, “Activation specific inhibitors of nf-kb and method of treating inflammatory processes in cardio-vascular diseases” (PROCORDE GMBH, priority 2003, published 2006) come the findings set out here.

Chains of the proteins cited; added tags and fusions are not shown.
UniProt O14920, whole entry: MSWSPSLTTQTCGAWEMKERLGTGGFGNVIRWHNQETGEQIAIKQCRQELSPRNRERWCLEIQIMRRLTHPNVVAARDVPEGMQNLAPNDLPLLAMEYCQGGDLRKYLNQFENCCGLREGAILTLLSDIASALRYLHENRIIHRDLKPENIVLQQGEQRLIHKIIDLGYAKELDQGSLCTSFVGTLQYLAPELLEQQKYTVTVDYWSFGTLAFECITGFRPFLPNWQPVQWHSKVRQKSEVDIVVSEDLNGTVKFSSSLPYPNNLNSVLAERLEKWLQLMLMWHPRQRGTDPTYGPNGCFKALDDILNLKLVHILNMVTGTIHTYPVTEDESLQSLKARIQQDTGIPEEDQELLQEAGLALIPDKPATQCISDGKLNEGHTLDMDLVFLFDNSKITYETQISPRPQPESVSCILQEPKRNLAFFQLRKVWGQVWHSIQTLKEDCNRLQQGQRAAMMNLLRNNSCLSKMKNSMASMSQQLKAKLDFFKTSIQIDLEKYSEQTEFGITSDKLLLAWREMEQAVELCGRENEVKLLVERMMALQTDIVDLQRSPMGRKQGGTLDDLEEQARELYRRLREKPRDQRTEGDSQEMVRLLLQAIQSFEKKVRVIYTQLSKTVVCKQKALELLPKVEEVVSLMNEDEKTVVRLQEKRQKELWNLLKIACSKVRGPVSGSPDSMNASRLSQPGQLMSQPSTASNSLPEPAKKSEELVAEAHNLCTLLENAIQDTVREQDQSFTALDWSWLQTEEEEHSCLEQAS
UniProt O15111, whole entry: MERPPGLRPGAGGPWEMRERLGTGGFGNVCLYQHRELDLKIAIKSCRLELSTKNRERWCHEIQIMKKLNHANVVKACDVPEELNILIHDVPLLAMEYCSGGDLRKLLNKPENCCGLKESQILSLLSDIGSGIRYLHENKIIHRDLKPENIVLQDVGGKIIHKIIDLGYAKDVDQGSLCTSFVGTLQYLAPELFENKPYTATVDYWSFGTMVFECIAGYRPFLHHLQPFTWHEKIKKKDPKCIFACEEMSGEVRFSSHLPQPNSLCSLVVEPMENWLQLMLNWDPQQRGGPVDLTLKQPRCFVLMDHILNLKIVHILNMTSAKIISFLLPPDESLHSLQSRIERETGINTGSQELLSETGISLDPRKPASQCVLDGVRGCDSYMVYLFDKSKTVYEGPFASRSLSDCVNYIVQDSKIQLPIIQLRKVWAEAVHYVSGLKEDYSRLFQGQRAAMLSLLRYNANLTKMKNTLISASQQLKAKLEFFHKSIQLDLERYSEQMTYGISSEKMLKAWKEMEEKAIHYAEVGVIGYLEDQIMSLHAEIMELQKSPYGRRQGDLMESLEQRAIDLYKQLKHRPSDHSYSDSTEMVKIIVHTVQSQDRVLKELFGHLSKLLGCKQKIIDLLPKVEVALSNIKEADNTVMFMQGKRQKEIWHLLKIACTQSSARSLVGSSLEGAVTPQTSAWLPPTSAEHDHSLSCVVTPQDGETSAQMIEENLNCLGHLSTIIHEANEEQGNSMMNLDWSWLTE
UniProt Q9Y6K9, whole entry: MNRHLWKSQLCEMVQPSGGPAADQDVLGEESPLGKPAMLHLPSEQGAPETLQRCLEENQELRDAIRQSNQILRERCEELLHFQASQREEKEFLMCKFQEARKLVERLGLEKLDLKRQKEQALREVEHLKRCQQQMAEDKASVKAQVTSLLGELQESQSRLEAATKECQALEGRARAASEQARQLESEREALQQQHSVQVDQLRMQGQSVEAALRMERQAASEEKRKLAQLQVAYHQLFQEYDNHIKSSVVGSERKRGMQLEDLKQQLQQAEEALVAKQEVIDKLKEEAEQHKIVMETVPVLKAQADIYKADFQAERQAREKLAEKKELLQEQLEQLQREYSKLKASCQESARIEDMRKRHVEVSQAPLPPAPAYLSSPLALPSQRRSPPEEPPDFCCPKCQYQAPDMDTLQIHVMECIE

In data set [1] the test system is I KappaB alpha phosphorylation. The data set is described as follows: P-IkBalpha detection in Western blot of HeLa cell lysates after TNF alpha stimulation. Particulars: HeLa cells. How it is done:
P-IkBα Detektion in Western-Blot Protocol: HeLa cells were maintained in Dulbecco's modified Eagle's medium (Invitrogen) supplemented with 10% fetal bovine serum, 2 mM L-glutamine, penicillin (50 units/ml) and streptomycin (50 μg/ml). 24 h before treatment with different compounds HeLa cells were plated at a density of 5×10^6 per well in 100-mm cell culture dishes to 90% confluences.
The cells were incubated with different drugs at the concentration indicated for 1 h, washed twice with PBS and stimulated with 20 ng/ml TNF alpha (Roche). After 7 min the cells were washed twice with ice cold PBS followed by scraping and transferring into a 1.5 ml micro centrifuge tube. After centrifugation by 2000 rpm for 2 min by 4° C. the PBS supernatant was removed and 200 μl lysis-buffer (10 mM Hepes, pH 7.9, 0.1% NP40, 10 mM, 300 mM Sucrose, 10 mM KCl, 15 mM MgCl2, 1 mM DTT, 0.5 mM PMSF and antipain, aprotinin, leupeptin each 0.75 μg/ml (Sigma) was added to the pellet. The resuspended pellet was incubated on ice for 5 min and centrifuged at 13000 g for 30 s. 30 μl of the supernatant, cytosolic extract, was diluted with Laemmli-buffer (2% SDS, 2% 2-Mercaptoethanol, 0.01% Bromophenol blue, 8% Glycerine), heated by 60° C. for 10 min and loaded to a 4-20% polyacrylamid gels (BioRad). After electrophoresis the proteins were transferred to a nitrocellulose membrane using the wet blotting technique. […]
(A western blot detects proteins with antibodies after separation by electrophoresis.)

In a further data set the target is IKK-complex (Homo sapiens, UniProt O14920+O15111+Q9Y6K9). Put plainly: Cellular IKK kinase assay: HeLa cells treated with compound, TNF alpha stimulation, IKK-complex immunoprecipitated with anti-NEMO-antibody, I kappaB peptide phosphorylation by alpha screen. Particulars: read-out: IC50 for inhibition of IKK-activity (I kappaB peptide phosphorylation), compound 1 h, TNF alpha 20 ng/ml. How it is done:
Kinase Assay Protocol: HeLa cells were maintained in Dulbecco's modified Eagle's medium (Invitrogen) supplemented with 10% fetal bovine serum, 2 mM L-glutamine, penicillin (50 units/ml) and streptomycin (50 μg/ml). 24 h before treatment with different compounds HeLa cells were plated at a density of 5×10^6 per well in 100-mm cell culture dishes to 90% confluences.
The cells were incubated with different drugs at the concentration indicated for 1 h, washed twice with PBS and stimulated with 20 ng/ml TNF alpha (Roche). After 7 min the cells were washed twice with ice cold PBS followed by scraping and transferring into a 1.5 ml microcentrifuge tube. […] 6.6 μl of detection-buffer (20 mM Hepes pH 7.5, 100 mM NaCl, 1% Tween, 0.1 mM BSA, 50 μg/ml Protein A-Acceptor beads, 250 μg/ml Streptavidin-Donor beads (both Perkin-Elmer), 4 nM anti-phospho-IKB antibody (Santa Cruz Biotechnology) was dispensed to each well. After incubation for 1.5 h the plate was measured by alpha screen reader (Perkin Elmer). […]
(Bead proximity is the source of the signal in Alpha formats.)

For a further data set, the system named is HeLa cells. The data set is described as follows: Cell permeability: compound in the cytosolic extract of HeLa cells, signal at 450 nm in Elisa reader. Particulars: 100 μM, 1 h. How it is done:
3×10^6 HeLa cells were incubated with compound 73 at 100 μM for 1 h. After washing with PBS three times 120 μl hypotonic buffer (10 mM NaCl, 10 mM Hepes ph 7.5) was added to the cell pellet and frozen in liquid N2 for cell lysis. After centrifugation at 16000 g for 5 min the supernatant was measured by 450 nm in Elisa and amount of compound 73 was compared with a standard concentration of this substances.

The structures appear in SMILES notation.

In the case of `CCOC(=O)C1=C(C)N=c2sc(=Cc3ccc(-c4cccc(C(=O)O)c4)o3)c(=O)n2C1c1cc(OC)c(OC)cc1Br` (centres unmarked), the “effect on IkappaB phosphorylation (Western blot), comparison of COM 73 and COM 54 family” value in data set [1] (10 and 100 μM) is “concentration-dependently inhibited”. Besides, the “inhibition of phosphorylation of IkappaB (Western blot)” value in data set [1] (increasing concentrations) is reported as “dose-dependently inhibited”. The IC50 at IKK-complex was 8 µM. In addition, in the data set with HeLa cells, the cell permeability entry is on record as “excellent cell permeability” and the “concentration found inside the cells” value is reported as “approximately 90 μM”.
